Test results as given in patent US5945415A, “(R)-5-bromo-N-(1-ethyl-4-methylhexahydr o-1H-1,4-diazepin-6-yl)-2-methoxy-6-methylamino-3-pyridinecarboxamide, process for producing the same and medicinal composition containing the same” (priority 1995, dated 1999).

Sequences of proteins named here, by UniProt entry; tags and fusion partners are left off.
UniProt P61169, whole entry: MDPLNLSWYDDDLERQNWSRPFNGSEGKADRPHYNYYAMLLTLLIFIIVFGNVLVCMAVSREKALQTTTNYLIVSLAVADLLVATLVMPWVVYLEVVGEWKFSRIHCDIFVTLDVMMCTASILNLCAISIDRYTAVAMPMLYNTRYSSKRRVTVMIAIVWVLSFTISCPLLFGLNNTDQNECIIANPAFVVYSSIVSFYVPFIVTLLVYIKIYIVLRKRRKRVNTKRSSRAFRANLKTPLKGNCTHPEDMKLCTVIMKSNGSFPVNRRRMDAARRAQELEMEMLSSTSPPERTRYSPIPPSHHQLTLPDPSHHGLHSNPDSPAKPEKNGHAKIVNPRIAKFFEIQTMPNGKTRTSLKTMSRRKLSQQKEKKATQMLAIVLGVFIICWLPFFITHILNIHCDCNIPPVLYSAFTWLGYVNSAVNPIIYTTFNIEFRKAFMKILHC

Molecular target: Dopamine D2 receptor (Rattus norvegicus, UniProt P61169)
Details: read-out: IC50 D2; crude synaptosome fractions from rat brain, [3H] spiperone (D2)

CCN(CC)CCNC(=O)c1cc(Cl)c(N)cc1OC.Cl.Cl.O [metoclopramide hydrochloride, 4-amino-5-chloro-N-[2-(diethylamino)ethyl]-2-methoxybenzamide dihydrochloride monohydrate]
IC50: 630 nM
